Measured values taken from PubChem BioAssay AID902 (National Center for Advancing Translational Sciences (NCATS), 2007).
Only a part is listed here, and it is no random draw. Results filed as inconclusive are left out. Calls of active or inactive are those of the source. Calls follow the shape of the dose curve; as a rule, active = well fitted cell-killing curve with a large enough effect; inconclusive = small, poorly fitted or top-dose-only effect; inactive = no such curve, though single readings can be large or run the other way.

Assay: qHTS Screen for Compounds that Selectively Target Cancer Cells with p53 Mutations: Cytotoxicity of p53ts Cells at the Nonpermissive Temperature; also: nearly all actives have a fitted effect of over 55% in size
Settings: H1299-p53A138V viability at 39C, ATP luminescence, 24 h; at 46.1 µM (top of the series)
% is scaled to controls: 0 for no effect and ±100 for the full control effect.

SMILES | activity change, negative = cell killing
O=[N+]([O-])C(Cl)(Cl)Cl | inactive: 8.04%
